The values that follow are results of earlier work, collected in PMC3151534 (Bioorganic & medicinal chemistry, 2010).

Protein sequences, listed by entry. Tags and fused reporters are not part of them. Lines headed by an entry give the natural chain unless they say otherwise; changes in a name come on top. Residues count along the entry.
UniProt P40189: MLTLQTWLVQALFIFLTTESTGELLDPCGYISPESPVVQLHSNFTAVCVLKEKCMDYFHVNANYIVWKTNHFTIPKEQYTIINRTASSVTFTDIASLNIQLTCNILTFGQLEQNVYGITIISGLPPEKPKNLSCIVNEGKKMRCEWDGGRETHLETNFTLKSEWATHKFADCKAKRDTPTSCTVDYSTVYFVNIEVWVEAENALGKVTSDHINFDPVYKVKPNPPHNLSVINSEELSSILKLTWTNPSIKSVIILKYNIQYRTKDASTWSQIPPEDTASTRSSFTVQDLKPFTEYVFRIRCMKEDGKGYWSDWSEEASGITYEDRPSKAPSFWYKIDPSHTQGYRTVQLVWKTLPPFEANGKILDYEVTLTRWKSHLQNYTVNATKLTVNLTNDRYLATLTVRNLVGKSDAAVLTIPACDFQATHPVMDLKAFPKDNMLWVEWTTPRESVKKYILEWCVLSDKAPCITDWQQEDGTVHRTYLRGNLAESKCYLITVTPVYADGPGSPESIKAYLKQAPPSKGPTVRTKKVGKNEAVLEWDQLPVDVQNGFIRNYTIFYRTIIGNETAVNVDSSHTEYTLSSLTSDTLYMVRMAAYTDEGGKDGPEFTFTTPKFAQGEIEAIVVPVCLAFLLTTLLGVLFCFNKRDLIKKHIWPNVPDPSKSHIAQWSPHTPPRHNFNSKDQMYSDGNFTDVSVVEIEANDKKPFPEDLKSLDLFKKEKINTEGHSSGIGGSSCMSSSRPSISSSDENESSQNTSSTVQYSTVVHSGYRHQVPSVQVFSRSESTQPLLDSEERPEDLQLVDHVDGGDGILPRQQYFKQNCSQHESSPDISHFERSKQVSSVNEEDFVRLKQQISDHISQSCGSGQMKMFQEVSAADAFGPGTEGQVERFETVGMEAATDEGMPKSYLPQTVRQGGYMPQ
UniProt P40763, 577-673: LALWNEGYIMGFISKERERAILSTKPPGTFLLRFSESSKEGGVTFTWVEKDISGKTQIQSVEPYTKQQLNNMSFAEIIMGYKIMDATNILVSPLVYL

What is called Kd is the equilibrium constant for the complex coming apart.

The target in the series is gp130 (Homo sapiens) (UniProt P40189). To be noted: cited from earlier work.

With STAT3 SH2 (from UniProt P40763), the Kd is 0.15 µM.
